Values quoted from earlier work in US20080206881A1, “DIAGNOSTIC MARKER FOR NEURODEGENERATIVE DISEASES” (priority 2007, published 2008).

Test system: ALS patients
Settings: cited from earlier work

For `Nc1nc2ccc(OC(F)(F)F)cc2s1` [RILUZOLE®, 2-amino-6-(trifluoromethoxxy)benzothiazole], the “survival in clinical trials” value is given as “marginally prolonged survival”.
